Assay results as given in patent publication US11193004B2, “Phosphoric ester preparations with reduced hygroscopicity” (LANXESS Deutschland GmbH, priority 2013, dated 2021).

Test: Solubility in water of phosphoric esters b)

tert-Butylated triphenyl phosphate [TBPP]
Solubility in water at 25° C.: 2.7 µg/mL
